These results are taken from patent US6476021B1 (priority 1997, dated 2002).

Amino acid sequences for entries named in this document (tags omitted). Residues count along the entry.
UniProt P11541, 2-856: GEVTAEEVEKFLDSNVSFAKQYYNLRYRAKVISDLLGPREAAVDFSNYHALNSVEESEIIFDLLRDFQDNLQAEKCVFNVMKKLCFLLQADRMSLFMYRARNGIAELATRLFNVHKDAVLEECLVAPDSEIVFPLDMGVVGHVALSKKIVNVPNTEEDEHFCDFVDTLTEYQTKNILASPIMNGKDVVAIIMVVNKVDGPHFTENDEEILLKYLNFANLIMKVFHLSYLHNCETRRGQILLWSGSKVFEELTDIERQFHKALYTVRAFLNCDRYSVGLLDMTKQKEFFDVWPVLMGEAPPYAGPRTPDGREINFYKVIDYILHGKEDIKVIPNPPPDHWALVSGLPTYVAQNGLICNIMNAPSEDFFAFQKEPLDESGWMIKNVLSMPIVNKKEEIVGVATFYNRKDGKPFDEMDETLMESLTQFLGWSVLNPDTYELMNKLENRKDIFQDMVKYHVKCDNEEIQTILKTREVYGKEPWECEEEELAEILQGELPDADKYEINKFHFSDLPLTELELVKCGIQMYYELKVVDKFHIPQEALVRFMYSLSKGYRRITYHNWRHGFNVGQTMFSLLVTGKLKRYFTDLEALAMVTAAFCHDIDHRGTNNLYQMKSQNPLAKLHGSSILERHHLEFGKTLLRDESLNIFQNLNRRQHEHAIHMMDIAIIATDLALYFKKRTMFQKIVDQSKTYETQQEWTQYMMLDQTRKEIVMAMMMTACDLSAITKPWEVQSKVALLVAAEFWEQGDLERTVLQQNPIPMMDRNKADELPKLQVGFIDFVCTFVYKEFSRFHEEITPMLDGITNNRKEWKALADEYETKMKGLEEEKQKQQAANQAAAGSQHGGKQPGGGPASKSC
UniProt P23439, 2-850: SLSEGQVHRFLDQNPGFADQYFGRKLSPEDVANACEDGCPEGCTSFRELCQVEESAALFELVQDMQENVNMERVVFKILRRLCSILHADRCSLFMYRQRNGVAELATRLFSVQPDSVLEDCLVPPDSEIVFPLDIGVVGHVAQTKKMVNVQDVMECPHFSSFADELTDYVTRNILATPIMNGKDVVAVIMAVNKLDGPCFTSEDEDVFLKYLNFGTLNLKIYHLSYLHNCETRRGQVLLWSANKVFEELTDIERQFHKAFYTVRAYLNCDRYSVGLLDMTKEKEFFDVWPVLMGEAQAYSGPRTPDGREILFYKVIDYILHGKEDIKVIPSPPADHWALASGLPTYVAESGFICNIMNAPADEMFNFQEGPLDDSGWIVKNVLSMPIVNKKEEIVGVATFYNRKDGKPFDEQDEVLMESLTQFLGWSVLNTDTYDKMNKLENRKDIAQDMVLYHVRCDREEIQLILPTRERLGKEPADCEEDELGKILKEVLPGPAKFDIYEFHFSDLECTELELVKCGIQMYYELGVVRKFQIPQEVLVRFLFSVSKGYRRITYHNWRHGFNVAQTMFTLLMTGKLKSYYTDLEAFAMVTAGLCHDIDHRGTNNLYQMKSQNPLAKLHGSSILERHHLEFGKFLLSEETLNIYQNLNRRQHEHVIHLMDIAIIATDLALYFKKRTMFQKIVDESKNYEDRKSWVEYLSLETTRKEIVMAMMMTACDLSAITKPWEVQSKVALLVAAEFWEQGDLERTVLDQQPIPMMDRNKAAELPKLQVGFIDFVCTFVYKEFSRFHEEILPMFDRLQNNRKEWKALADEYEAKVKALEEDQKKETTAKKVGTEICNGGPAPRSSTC

One experiment has as its target PDE type V (Canis lupus familiaris, UniProt O77746). In words: biochemical.
Another experiment deals with PDE type VI (Bos taurus, UniProt P11541+P23439). Nature of the experiment: biochemical.

As usually defined, the IC50 is the concentration at which inhibition is half-maximal. As for `O=c1c(Cc2cccnc2)cn2c3cc(Br)ccc3c(=O)c3cc(OCCCO)cc1c32` [Example 34, 10-bromo-5-(3-hydroxypropyloxy)-2-(3-pyridylmethyl)-3H,7H-pyrido[3,2,1-de]acridin-3,7-dione], the IC50 on PDE type V is 2.5 nM; at PDE type VI it was 25 nM.
`O=c1c(Cc2cccnc2)cn2c3c(cc(OCc4ccccn4)cc13)Sc1ccc(Br)cc1-2` [Example 44, 10-bromo-2-(3-pyridylmethyl)-5-(2-pyridylmethyloxy)-3H-pyrido[3,2,1-kl]phenothiazin-3-one]: the results for the IC50 at PDE type V and on PDE type VI were 4.1 nM and 38 nM, respectively.
The like results for `O=c1c(Cc2cccnc2)cn2c3c(cc(OCCN4CCCCC4)cc13)Sc1ccc(Br)cc1-2` [Example 50] were, in that order, 11 nM and 250 nM.
